Measurements reported in patent publication US20020006942A1, “Methods of treating liver disorders and disorders associated with liver function” (priority 2000, published 2002).

Test system: CYP7A1 mRNA expression by rat hepatoma L35 cells
Details: THP-1 cells with CDCA 100 μM and rosiglitazone; L35 cells 24 h
Description: Rat L35 cells were cultured in Dulbecco's modified eagle medium (DMEM) as described (Trawick, et al., 1996, J. Lipid Res. 37:24169-24176; Trawick, et al., 1997, J Biol. Chem. 272:3099-3102). THP-1 cells, were cultured as described (Moulton, et al., 1992, Proc. Natl. Acad. Sci. USA. 89:8102-8106).
RNA was isolated, blotted onto nitrocellulose and probed with ^32P-labeled cDNA encoding rat CYP7A1 and β-actin. The relative abundance of CYP7A1 mRNA to (β-actin MRNA was determined using Phosphorimager quantitation (Molecular Biosystems).
After 24 hours, cells were harvested, polyA RNA was isolated, blotted onto nitrocellulose and probed with ^32P-labeled cDNA encoding rat CYP7A1 and β-actin.
After 24 h, cells were harvested and the relative level of CYP7A mRNA to β-actin MRNA was quantitated.

effect on ability of THP-1 cells exposed to CDCA to produce conditioned medium that represses CYP7A1 expression by L35 cells: blocked
Structure (SMILES): CN(CCOc1ccc(CC2SC(=O)NC2=O)cc1)c1ccccn1 (stereo not shown) [rosiglitazone]
